Molecular target: Aβ1-20 (Homo sapiens, UniProt P05067)
Assay: Hydrolysis activity against Aβ1-20
Settings: Tris buffer solution (50 mmol/l, pH 7.5); 3 or 5 days

Protein sequences, listed by entry. Tags and fused reporters are not part of them. Residues count along the entry.
UniProt P05067, 672-691 limits assumed: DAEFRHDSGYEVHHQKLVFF

## KYEGHWYPEKPYKGSGFRCIHI [JAL]
  hydrolysis activity against Aβ1-20: exhibited activity
